# Molecular target: T1, Amyloid-β peptide 1–42 (UniProt P05067 672-713)
# T1 construct: Amyloid-β 1–42, cut product of the amyloid precursor protein; numbers count on: the Aβ peptide; also called Aβ_(1–42); Aβ; source: bought: rPeptide (MST); Anaspec (ThT aggregation assay); Bachem (TEM)
# Test: MST; 20 nM NT647-labelled CERT incubated 20 min at room temperature in the dark with Aβ1–42 (3–100,000 nM) in PBS Tween20 (0.01%); Monolith NT.155, LED 40.51%, IR laser 80%
# Conditions: both partners purified
binder,measurement,value
"Recombinant human CERTL (72 kDa, hCERTL) (natural protein, UniProt Q9Y5P4-1 1-624, looked up, NT647 label (in the MST), also called recombinant CERTL; NT647 labeled CERT) MSDNQSWNSSGSEEDPETESGPPVERCGVLSKWTNYIHGWQDRWVVLKNNALSYYKSEDETEYGCRGSICLSKAVITPHDFDECRFDISVNDSVWYLRAQDPDHRQQWIDAIEQHKTESGYGSESSLRRHGSMVSLVSGASGYSATSTSSFKKGHSLREKLAEMETFRDILCRQVDTLQKYFDACADAVSKDELQRDKVVEDDEDDFPTTRSDGDFLHSTNGNKEKLFPHVTPKGINGIDFKGEAITFKATTAGILATLSHCIELMVKREDSWQKRLDKETEKKRRTEEAYKNAMTELKKKSHFGGPDYEEGPNSLINEEEFFDAVEAALDRQDKIEEQSQSEKVRLHWPTSLPSGDAFSSVGTHRFVQKPYSRSSSMSSIDLVSASDDVHRFSSQVEEMVQNHMTYSLQDVGGDANWQLVVEEGEMKVYRREVEENGIVLDPLKATHAVKGVTGHEVCNYFWNVDVRNDWETTIENFHVVETLADNAIIIYQTHKRVWPASQRDVLYLSVIRKIPALTENDPETWIVCNFSVDHDSAPLNNRCVRAKINVAMICQTLVSPPEGNQEISRDNILCKITYVANVNPGGWAPASVLRAVAKREYPKFLKRFTSYVQEKTAGKPILF",Kd,2500 ± 300 nM
